Assay results taken from ChEMBL document CHEMBL1152975, “Design and synthesis of orally bioavailable serum and glucocorticoid-regulated kinase 1 (SGK1) inhibitors” (Bioorg Med Chem Lett, 2009).

Biological target: T1, Serine/threonine-protein kinase Sgk1 (Homo sapiens, UniProt O00141)
T1 sequence (O00141 whole entry): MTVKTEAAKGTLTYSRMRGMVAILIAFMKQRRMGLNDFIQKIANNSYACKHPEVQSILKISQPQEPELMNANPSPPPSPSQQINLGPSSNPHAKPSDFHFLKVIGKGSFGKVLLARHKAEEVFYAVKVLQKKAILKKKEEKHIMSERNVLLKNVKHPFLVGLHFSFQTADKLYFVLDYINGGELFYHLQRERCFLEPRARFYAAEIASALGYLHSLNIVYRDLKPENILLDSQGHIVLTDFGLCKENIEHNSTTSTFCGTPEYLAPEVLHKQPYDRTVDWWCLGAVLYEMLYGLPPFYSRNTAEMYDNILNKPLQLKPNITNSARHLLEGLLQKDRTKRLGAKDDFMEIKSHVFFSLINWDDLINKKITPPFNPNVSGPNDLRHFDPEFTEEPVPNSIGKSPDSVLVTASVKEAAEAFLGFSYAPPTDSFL
Test: Inhibition of SGK1 by fluorescence polarization assay

IC50: 63 nM
Structure (SMILES): O=C(O)Cc1ccc(-c2c[nH]c3ncc(-c4ccc5ccccc5c4)cc23)cc1
